Assay results as given in US20240270859A1.

Tests used:
[1] = target: human TNFα (TNF-H5228 of Acro Biosystems) (human) (UniProt P01375); experiment: cell-based or functional assay
[2] = target: human OX40L protein (OX40L-his), Acro Biosystems Cat #OXL-H52Q8 (human) (UniProt P23510); experiment: cell-based or functional assay

## reference anti-TNFα antibody Ref. TNFαi (VH and VL of Humira)
[1]
  IC50 (nM), TNFα blockade assay (luminescence of NFκB-RE HEK293 cells): 0.063 nM

## bispecific antibody TNFαi-02C09 HC
[1]
  IC50 (nM), TNFα blockade assay (luminescence of NFκB-RE HEK293 cells): 0.057 nM

## bispecific antibody TNFαi-I3F07 HC
[2]
  IC50 (nM), OX40L blockade assay (luminescence of NFκB-luc2/OX40 Jurkat cells): 0.8 nM
[1]
  IC50 (nM), TNFα blockade assay (luminescence of NFκB-RE HEK293 cells): 0.054 nM
